Target: T1, human V1a receptor (Homo sapiens, UniProt P37288)
T1 construct: host or cells: CHO cells (hV1a cell line)
Test: Human vasopressin V1a receptor binding assay (3H-AVP competition, hV1a CHO cells)
Conditions: CHO cells expressing human V1a
Method: Human vasopression V1a receptor binding assay. A cell line expressing the human V1a receptor in CHO cells (henceforth referred to as the hV1a cell line) was obtained from Dr. Michael Brownstein, NIMH, Bethesda, Md., USA. The hV1a cDNA sequence is described by Thibonnier et al., Journal of Biological Chemistry, 269, 3304-3310 (1994), and the expression method was the same as described by Morel et al. (1992). The hV1a cell line was grown in alpha-MEM with 10% fetal bovine serum and 250 ug/ml G418 (Gibco, Grand Island, N.Y., USA). For competitive binding assay, hV1a cells were plated into 6-well culture plate at 1:10 dilution from a confluency flask, and maintained in culture for at least two days. Culture medium was then removed, cells were washed with 2 ml binding buffer (25 mM Hepes, 0.25% BSA, 1×DMEM, PH=7.0). To each well, 990 μl binding buffer containing InM 3H-AVP was added, and followed by 10 μl series diluted Example compounds dissolved in DMSO. […] 100 nM cold AVP (Sigma) was used to assess non-specific binding. Cells were incubated for 45 minutes at 37° C., assay mixture was removed and each well was washed three times with PBS (pH=7.4). 1 ml 2% SDS was added per well and plates were let sit for 30 minutes. […] Samples were counted in a liquid scintillation counter (Beckman LS3801). IC50 values were calculated by Prism Curve fitting software. […]

The chains behind the UniProt entries cited, without tags or fusion partners.
UniProt P37288, whole entry: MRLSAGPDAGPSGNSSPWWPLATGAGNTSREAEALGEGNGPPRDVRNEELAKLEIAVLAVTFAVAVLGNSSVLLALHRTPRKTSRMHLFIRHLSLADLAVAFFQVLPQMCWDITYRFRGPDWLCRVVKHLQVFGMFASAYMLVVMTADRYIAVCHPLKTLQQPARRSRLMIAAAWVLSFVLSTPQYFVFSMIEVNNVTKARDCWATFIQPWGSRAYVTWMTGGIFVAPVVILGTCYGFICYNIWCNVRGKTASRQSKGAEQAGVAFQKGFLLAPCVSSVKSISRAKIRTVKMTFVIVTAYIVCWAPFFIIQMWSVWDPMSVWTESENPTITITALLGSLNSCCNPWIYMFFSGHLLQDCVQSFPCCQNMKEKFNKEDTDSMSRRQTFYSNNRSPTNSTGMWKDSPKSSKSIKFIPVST

O=C(NCc1cccc(C(F)(F)F)c1F)C(CC(=O)N1CCC(N2CCCCC2)CC1)N1C(=O)C(N2C(=O)OCC2c2ccccc2)C1C=Cc1ccccc1 [Example 222, 2(R)-[[4-(Piperidinyl)piperidinyl]carbonylmethyl]-2-[3(S)-(4(S)-phenyloxazolidin-2-on-3-yl)-4(R)-(2-styryl)azetidin-2-on-1-yl]acetic acid N-(2-fluoro-3-trifluoromethylbenzyl)carboxamide]
Ki: 1.13 nM
IC50 (read-out: V1a Binding Affinity IC50): 1.83 nM

— patent US11319306B2, “Compositions and methods for treating neurodegenerative diseases” (Azevan Pharmaceuticals, Inc., priority 2014, dated 2022)
